Results as given in article PMC4527783 (PLoS ONE, 2015).

Tested on: NOP receptor (G protein vs β-arrestin 2)
Test: Bias factor, NOP/G-protein vs NOP/arrestin
Parameters: species or system human
Settings: log10 units, N/OFQ as standard unbiased ligand, G protein minus β-arrestin 2; at least 5 independent Emax/EC50 values; 3-parameter fit, unit slope; * p < 0.05

`O=C1NCN(c2ccccc2)C12CCN(C1Cc3cccc4cccc1c34)CC2` (stereo not shown) was tested, and the bias factor ± sem was 1.07 ^·.
